Results as given in PubChem BioAssay AID624418 (National Center for Advancing Translational Sciences (NCATS), 2012).
This is a selection; strong and weak results do not stand in their true shares. Inconclusive results are not listed. Some salts or complexes appear as unconnected parts, following the source record. Activity calls are given as the source filed them. The call rests on the fitted dose curve; in most records, active means well fitted inhibition curve with a large enough effect; inconclusive means small, poorly fitted or top-dose-only effect, or another doubt; inactive means no such curve, though single readings can be large or run the other way.

Test: qHTS of GLP-1 Receptor Inverse Agonists: Cytotox Screen;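 further: loss of luciferase light is scored as toxicity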
Settings: HEK293 cAMP-luciferase reporter cells, luminescence, 24 h; at 38.3 µM (top of the series)
Excerpt: The overall goal of this project was to develop a novel assay for discovering small molecule ligands for class B1 G protein-coupled receptors (GPCRs). Very few agonists (or inverse agonists) with generally weak activity for this entire group of physiologically important receptors are known to date. To establish proof-of-principle that this critical bottleneck can be overcome with a suitable screening approach, our studies focused on the class B1 receptor for glucagon-like peptide-1 (GLP-1R), a potential therapeutic target for diabetes and neurodegenerative disease.
The assay was developed using a cell-based functional readout. Toward this goal, stably transfected HEK293 cell clones were established that co-express (i) a cAMP-responsive luciferase reporter gene, and (ii) constitutively active GLP-1R that upon ligand interaction inhibit (inverse agonists) the luciferase activity. In addition, two control cell lines were developed: (i) one that express only the cAMP-responsive reporter gene to enable initial exclusion of GLP-1R independent effects of candidate probes; and (ii) one with the reported gene cloned with another constitutively active orphan receptor GPR119 to enable exclusion of GLP-1R independent inhibitor effects of candidate inverse agonists.
To that end, this assay was optimized for 1536-well format and screened against the MLSMR. Then the same collection was run in this cytotoxicity assay where inhibition was the undesired outcome.
NIH Molecular Libraries Probe Production Network [MLPCN]
NIH Chemical Genomics Center [NCGC]
PI Name: Martin Beinborn, Tufts Medical Center
Six ul of cell suspension (200 cells/uL in DMEM + 10% Nu serum + 1% pen-strep) is dispensed in a white solid 1536-well plate. The plates are incubated for 12 hours at 37 deg C at 5% CO2 followed by addition of 23 nL compounds. After 24 hr incubation at 37 deg C and 5% CO2, 3 uL of luciferase assay detection reagent is added. A luminescence read is obtained on the PerkinElmer Viewlux after 12 min incubation at room temperature.
On the % scale 0 is the no-effect control and ±100 the full control effect.

Row | SMILES | activity change, negative = inhibition
1 | CN1CCC(Nc2cccc(F)c2)CC1 | inactive: -6.07%
2 | O=C(NCC1(N2CCCCC2)CCCCC1)c1cncc(Br)c1 | inactive: 4.51%
3 | COc1ccc2c(c1O)-c1c(O)c(OC)cc3c1[C@H](C2)[N+](C)(C)CC3.O=[N+]([O-])c1cc([N+](=O)[O-])c([O-])c([N+](=O)[O-])c1[O-] | inactive: -34.1%
4 | O=C(OC1CN2CCC1CC2)c1ccc([N+](=O)[O-])cc1 (stereo not drawn) | inactive: -17.1%
5 | CCCCn1nnnc1C(c1ccnc2ccccc12)N1CCC(n2c(=O)[nH]c3ccccc32)CC1 (stereo not drawn) | inactive: -11.5%
6 | COc1cc(OC)c(C(=O)NCC2(N(C)C)CCCCC2)cc1OC | inactive: 1.33%
7 | O=C(NCC1(N2CCOCC2)CCCCC1)c1cc(F)c(F)cc1Cl | inactive: -0.921%
8 | CCC(c1nnnn1C(C)(C)C)N1CCC(n2c(=O)[nH]c3ccccc32)CC1 (stereo not drawn) | inactive: -8.25%
9 | COc1ccc(CN(CCCl)CCCl)cc1Cl | inactive: -9.68%
10 | CN(C)c1cccc(C(=O)NCC2(N3CCCCC3)CCCCC2)c1 | inactive: -2.92%
11 | CC(C)c1ccc(NC2CCN(C(=O)OC(C)(C)C)CC2)cc1 | inactive: -1.23%
12 | COc1ccc(NC2CCN(C(=O)OC(C)(C)C)CC2)cc1 | inactive: -25.2%
13 | CC(C)c1ccc(C(=O)NCC2(N3CCOCC3)CCCCC2)cc1 | inactive: 10.7%
14 | CN1CCN(CCOC(=O)C(O)(c2ccccc2)c2ccccc2)CC1 | inactive: 2.96%
15 | CCCCn1nnnc1C(c1cccc2ccccc12)N1CCC(n2c(=O)[nH]c3ccccc32)CC1 (stereo not drawn) | inactive: -11%
16 | O=C(NCC1(N2CCOCC2)CCCCC1)c1cc(=O)[nH]c2ccccc12 | inactive: -11.6%
17 | COc1cc(C(=O)NCC2(N3CCCCC3)CCCCC2)ccc1OC(F)F | inactive: 1.85%
18 | O=C(NCC1(N2CCCCC2)CCCCC1)c1cccc(C(F)(F)F)c1 | inactive: -15.5%
19 | CCCOc1cccc(C(=O)NCC2(N3CCOCC3)CCCCC2)c1 | inactive: 1.55%
20 | O=[N+]([O-])c1cc([N+](=O)[O-])c(NCC2CCS(=O)(=O)C2)c([N+](=O)[O-])c1 (stereo not drawn) | inactive: -18.4%
21 | CSc1ccc(C(=O)NCC2(N3CCOCC3)CCCCC2)cc1 | inactive: -2.62%
22 | CCOc1ccc(C(=O)NCC2(N3CCOCC3)CCCCC2)cc1 | inactive: 1.3%
23 | O=C(NCC1(N2CCCCC2)CCCCC1)c1cccc([N+](=O)[O-])c1 | inactive: 13.1%
24 | CCN1CCC(Nc2ccc(Cl)cc2)CC1 | inactive: -7.73%
25 | O=c1[nH]c2ccccc2n1C1CCN(C(c2ccccc2OC(F)(F)F)c2nnnn2C2CCCC2)CC1 (stereo not drawn) | inactive: -13.5%
26 | N#CC1(Nc2ccccc2)CCN(CCc2ccccc2)CC1 | inactive: 1.62%
27 | CC(C)(C)n1nnnc1C(c1ccccc1OC(F)(F)F)N1CCC(n2c(=O)[nH]c3ccccc32)CC1 (stereo not drawn) | inactive: -26.6%
28 | O=C(NCC1(N2CCCCC2)CCCCC1)c1ccc(OC(F)F)cc1 | inactive: 3.2%
